Reference: patent US7338958B2, “Sulfoximine-substituted pyrimidines as CDK-and/or VEGF inhibitors, their production and use as pharmaceutical agents” (Schering AG, priority 2003, dated 2008)

Sequences of proteins named here, by UniProt entry; tags and fusion partners are left off. Residues count along the entry.
UniProt P35968, 20-1356: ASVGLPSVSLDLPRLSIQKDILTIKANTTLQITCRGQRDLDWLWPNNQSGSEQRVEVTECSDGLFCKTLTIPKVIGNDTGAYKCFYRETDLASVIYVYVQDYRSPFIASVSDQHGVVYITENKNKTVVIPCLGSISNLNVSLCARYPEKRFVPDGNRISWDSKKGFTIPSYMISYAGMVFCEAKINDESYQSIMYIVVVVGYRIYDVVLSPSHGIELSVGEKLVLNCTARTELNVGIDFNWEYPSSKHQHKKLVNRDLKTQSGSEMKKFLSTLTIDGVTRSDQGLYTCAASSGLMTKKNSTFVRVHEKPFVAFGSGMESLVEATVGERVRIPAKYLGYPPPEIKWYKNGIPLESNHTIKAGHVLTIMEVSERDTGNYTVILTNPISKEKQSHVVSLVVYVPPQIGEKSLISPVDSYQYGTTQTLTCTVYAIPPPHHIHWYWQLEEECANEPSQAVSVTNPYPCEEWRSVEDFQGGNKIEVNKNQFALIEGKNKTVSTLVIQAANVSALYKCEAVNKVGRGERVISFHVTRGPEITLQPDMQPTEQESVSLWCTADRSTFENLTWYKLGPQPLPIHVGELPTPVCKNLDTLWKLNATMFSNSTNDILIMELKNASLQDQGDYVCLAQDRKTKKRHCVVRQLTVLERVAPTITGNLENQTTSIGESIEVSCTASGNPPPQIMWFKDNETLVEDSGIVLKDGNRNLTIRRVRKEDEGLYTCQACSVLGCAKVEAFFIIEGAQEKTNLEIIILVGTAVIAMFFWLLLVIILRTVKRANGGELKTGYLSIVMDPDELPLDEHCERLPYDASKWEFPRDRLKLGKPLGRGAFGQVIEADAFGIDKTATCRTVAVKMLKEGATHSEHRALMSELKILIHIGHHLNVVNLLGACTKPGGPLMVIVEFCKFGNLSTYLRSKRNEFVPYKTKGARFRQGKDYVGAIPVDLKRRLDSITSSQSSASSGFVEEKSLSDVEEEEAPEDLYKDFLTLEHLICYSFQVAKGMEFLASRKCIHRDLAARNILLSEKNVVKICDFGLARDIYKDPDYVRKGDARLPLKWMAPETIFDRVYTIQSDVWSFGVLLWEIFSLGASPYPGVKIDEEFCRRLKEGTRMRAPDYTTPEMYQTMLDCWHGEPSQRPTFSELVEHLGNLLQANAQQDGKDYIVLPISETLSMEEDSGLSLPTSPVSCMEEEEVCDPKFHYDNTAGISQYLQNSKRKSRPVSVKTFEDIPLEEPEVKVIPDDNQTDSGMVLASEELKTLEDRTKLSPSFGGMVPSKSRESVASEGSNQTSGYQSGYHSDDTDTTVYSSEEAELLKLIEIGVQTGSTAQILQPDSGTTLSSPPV
UniProt P06493, whole entry: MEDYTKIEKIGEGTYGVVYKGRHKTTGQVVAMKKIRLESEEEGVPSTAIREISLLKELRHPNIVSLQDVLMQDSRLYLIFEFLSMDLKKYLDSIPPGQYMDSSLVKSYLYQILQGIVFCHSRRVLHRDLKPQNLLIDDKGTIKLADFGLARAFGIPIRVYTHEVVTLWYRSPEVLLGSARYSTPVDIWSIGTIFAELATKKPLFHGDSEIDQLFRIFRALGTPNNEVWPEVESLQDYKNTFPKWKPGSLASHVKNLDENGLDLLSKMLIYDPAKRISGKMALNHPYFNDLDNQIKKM

Tests used:
[1] = target: T1, VEGF receptor tyrosine kinase-2 (Homo sapiens, UniProt P35968); assay: VEGF Receptor-2 Kinase Assay; format: biochemical; settings: poly-(Glu4Tyr) substrate, 33P-ATP, 10 minutes at 22° C.; read-out: VEGF-R2 IC50
T1 construct: GST; made in house; host or cells: baculovirus-infected insect cells (Sf9)

CDK2/CycE = target: T2, CDK2/CycE (Homo sapiens, UniProt P24941); assay: CDK2/CycE Kinase Assay; format: biochemical; settings: histone IIIS substrate, 33P-ATP, 15 minutes at 22° C.
T2 construct: GST; purchased ProQinase GmbH, Freiburg; host or cells: baculovirus-infected insect cells (Sf9)

CDK1/CycB = target: T3, CDK1/CycB (Homo sapiens, UniProt P06493); assay: CDK1/CycB Kinase Assay; format: biochemical; settings: histone IIIS substrate, 33P-ATP, 15 minutes at 22° C.
T3 construct: GST; purchased ProQinase GmbH, Freiburg; host or cells: baculovirus-infected insect cells (Sf9)

[2] = test system: HCT 116, human colon cancer cells; assay: Proliferation assay, HCT116; format: cell-based; settings: HCT-116, 96 h, 4 days incubation, crystal violet
Description: Cultivated human tumor cells (MCF7, hormone-independent human breast cancer cells, related to ATCC HTB22; NCI-H460, human non-small-cell lung cancer cells, ATCC HTB-177, HCT 116, human colon cancer cells, ATCC CCL-247; DU 145, hormone-independent human prostate cancer cells, ATCC HTB-81; MaTu-MDR, hormone-independent, multiple pharmaceutical agent-resistant human breast cancer cells, EPO-GmbH, Berlin) were flattened out at a density of about 5000 cells/measuring point, depending on the growth rate of the respective cells, in a 96-well multititer plate in 200 μl of the corresponding growth medium. […] The cell proliferation was determined by coloring the cells with crystal violet: the cells were fixed by adding 20 μl/measuring point of an 11% glutaric aldehyde solution for 15 minutes at room temperature. […] The extinction was determined by photometry at a wavelength of 595 nm. The change of cell growth, in percent, was calculated by normalization of the measured values to the extinction values of the zero-point plate (=0%) and the extinction of the untreated (0 μm) cells (=100%).

[3] = test system: NCI-H460, human non-small-cell lung cancer cells; assay: Proliferation assay, H460; format: cell-based; settings: NCI-H460, 96 h, 4 days incubation, crystal violet

Row | Compound | IC50 [1] [nM] | IC50 (CDK2/CycE) [nM] | also measured
1 | C[C@@H](Nc1nc(Nc2ccc(S(=N)(=O)C3CC3)cc2)ncc1Br)C(C)(C)O (mixture of isomers) [Example 1.6, (RS)-S-[4-({5-bromo-4-[(R)-(2-hydroxy-1,2-dimethylpropyl)amino]pyrimidin-2-yl}amino)phenyl]-S-cyclopropylsulfoximide] | 29 |  | 
2 | C[C@@H](Nc1nc(Nc2ccc(S(=N)(=O)C3CCCC3)cc2)ncc1Br)C(C)(C)O (mixture of isomers) [Example 1.11, (RS)-S-[4-({5-bromo-4-[(R)-(2-hydroxy-1,2-dimethylpropyl)amino]pyrimidin-2-yl}amino)phenyl]-S-cyclopentylsulfoximide] | 83 |  | 
3 | C[C@@H](O)[C@@H](C)Oc1nc(Nc2ccc(S(=N)(=O)CCO)cc2)ncc1Br (mixture of isomers) [Example 1.21, (RS)-S-[4-({5-bromo-4-[(1R,2R)-2-hydroxy-1-methyl-propoxy]pyrimidin-2-yl}amino)phenyl]-S-(2-hydroxyethyl)sulfoximide] |  | 6 | 
4 | COc1cc(Nc2ncc(Br)c(N[C@H](C)[C@@H](C)O)n2)ccc1S(C)(=N)=O (mixture of isomers) [Example 1.26, (RS)-S-[4-({5-bromo-4-[(1R,2R)-(2-hydroxy-1-methylpropyl)amino]pyrimidin-2-yl}amino)-2-methoxyphenyl]-S-methyl sulfoximide] |  |  | IC50 (CDK1/CycB): 2 nM
5 | Cc1cc(Nc2ncc(Br)c(N[C@H](C)C(C)(C)O)n2)ccc1S(C)(=N)=O (mixture of isomers) [Example 1.57, (RS)-S-[4-({5-bromo-4-[(R)-(2-hydroxy-1,2-dimethylpropyl)amino]pyrimidin-2-yl}amino)-2-methylphenyl]-S-methyl sulfoximide] |  | 4 | 
6 | CC(C)Nc1nc(Nc2ccc(S(C)(=N)=O)cc2)ncc1Br (racemic) [Example 2.0, (RS)-S-(4-{[5-bromo-4-(isopropylamino)pyrimidin-2-yl]amino}phenyl)-S-methyl sulfoximide] | 70 | 16 | 
7 | CS(=N)(=O)c1ccc(Nc2ncc(Br)c(Nc3ccccc3)n2)cc1 (racemic) [Example 2.3, (RS)-S-(4-{[5-bromo-4-(phenylamino)pyrimidin-2-yl]amino}phenyl)-S-methyl sulfoximide] |  | 33 | 
8 | CCC(Sc1nc(Nc2ccc(S(C)(=N)=O)cc2)ncc1Br)C(C)(C)O (racemic) [Example 3.8, (RS)-S-[4-({5-bromo-4-[(RS)-(1-ethyl-2-hydroxy-2-methylpropyl)sulfanyl]pyrimidin-2-yl}amino)phenyl]-S-methyl sulfoximide] |  |  | IC50 (CDK1/CycB): 91 nM
9 | C[C@@H](O)[C@@H](C)Nc1nc(Nc2ccc(S(C)(=N)=O)cc2)ncc1Br (single isomer, unassigned) [Example 1.2] | 48 |  | IC50 [2]: 20 nM
10 | COc1cc(Nc2ncc(Br)c(N[C@H](C)[C@@H](C)O)n2)ccc1S(C)(=N)=O (single isomer, unassigned) [Example 1.25] |  |  | IC50 (CDK1/CycB): 2 nM
11 | COc1cc(Nc2ncc(Br)c(N[C@H](C)[C@@H](C)O)n2)ccc1S(C)(=N)=O (single isomer, unassigned) [Example 1.26] |  |  | IC50 [3]: 30 nM

Continued, in another order:

Row | IC50 [1] [nM] | IC50 (CDK2/CycE) [nM] | Compound | also measured
12 | 250 | 41 | CC(O)CSc1nc(Nc2ccc(S(C)(=N)=O)cc2)ncc1Br (racemic) [Example 3.4, (RS)-S-[4-({5-bromo-4-[(RS)-(2-hydroxy-propyl)sulfanyl]pyrimidin-2-yl}amino)phenyl]-S-methyl sulfoximide] | 
13 | 200 |  | CCC(Sc1nc(Nc2ccc(S(C)(=N)=O)cc2)ncc1Br)C(C)O (racemic) [Example 3.6, (RS)-S-[4-({5-bromo-4-[(RS,RS)-(1-ethyl-2-hydroxypropyl)sulfanyl]pyrimidin-2-yl}amino)phenyl]-S-methyl sulfoximide] | 
14 | 110 | 11 | CC(Sc1nc(Nc2ccc(S(C)(=N)=O)cc2)ncc1Br)C(C)(C)O (racemic) [Example 3.7, (RS)-S-[4-({5-bromo-4-[(RS)-(2-hydroxy-1,2-dimethylpropyl)sulfanyl]pyrimidin-2-yl}amino)phenyl]-S-methyl sulfoximide] | 
